The values that follow come from patent US10081632B2, “Substituted tetrahydropyrido[3′,2′:4,5]pyrrolo[1,2-α]pyrazine-2-carboxamides as RSK inhibitors” (Phoenix Molecular Designs, priority 2016, dated 2018).

Assay [1] relates to MDA-MB-231, MDA-MB-468 or 4T1 cell lines. Kind of assay: Soft agar growth inhibition assay, over MDA-MB-231, MDA-MB-468 and 4T1. The format is cell-based. Conditions: range over MDA-MB-231, MDA-MB-468, 4T1; read-out: IC50 Values - Soft Agar (14-22 Days), Range, All.
The test system of assay [2] is MDA-MB-231, MDA-MB-468, SUM-149-PTX, HCC1143, HCC1937 or 4T1 cells. Kind of assay: Induction of cell death, PARP cleavage and P-YB-1 immunoblotting in TNBC models. Conditions: 120 hrs.
Assay [3] concerns MDA-MB-231 cells. Description: Monolayer growth inhibition, crystal violet assay. In kind it is cell-based. Conditions: Homo sapiens, MDA-MB-231, MDA-MB-231 (TNBC), 5 days, single dose on day 1.
Assay [4] concerns MDA-MB-231 cells. Description: Monolayer growth inhibition, Alamar blue assay. In kind it is cell-based. The settings on record: Homo sapiens, MDA-MB-231, MDA-MB-231 (TNBC), 5 days, single dose on day 1.

Counter-ions that a name gives are not always drawn.

Regarding `C[C@@H]1CNC(=O)c2c(Cl)c3ccc(C(=O)Nc4cnn(Cc5ccccc5)c4)nc3n21` [Compound 24, (R)—N-(1-benzyl-1H-pyrazol-4-yl)-5-chloro-9-methyl-6-oxo-6,7,8,9-tetrahydropyrido[3′,2′:4,5]pyrrolo[1,2-a]pyrazine-2-carboxamide], the IC50 in assay [1] lay within 400 to 2500 nM.
`C[C@@H]1CNC(=O)c2cc3ccc(C(=O)Nc4cnn(Cc5cccc(N)c5)c4)nc3n21` [Compound 16, (R)—N-(1-(3-aminobenzyl)-1H-pyrazol-4-yl)-9-methyl-6-oxo-6,7,8,9-tetrahydropyrido[3′,2′:4,5]pyrrolo[1,2-a]pyrazine-2-carboxamide]: the IC50 in assay [1] lay in the range of 200 to 3500 nM.
Still for that read-out and setting: the figure for `C[C@@H]1CNC(=O)c2cc3ccc(C(=O)Nc4cnn(Cc5ccc(CN)cc5)c4)nc3n21` [Compound 26, (R)—N-(1-(4-(aminomethyl)benzyl)-1H-pyrazol-4-yl)-9-methyl-6-oxo-6,7,8,9-tetrahydropyrido[3′,2′:4,5]pyrrolo[1,2-a]pyrazine-2-carboxamide hydrochloride salt] is 200 to 5300 nM.
Same read-out and setting: next, `C[C@@H]1CNC(=O)c2cc3ccc(C(=O)Nc4cnn(Cc5ccc(F)cc5F)c4)nc3n21` [Compound 23, (R)—N-(1-(2,4-difluorobenzyl)-1H-pyrazol-4-yl)-9-methyl-6-oxo-6,7,8,9-tetrahydropyrido[3′,2′:4,5]pyrrolo[1,2-a]pyrazine-2-carboxamide]: 300 to 4000 nM.
With `C[C@@H]1CNC(=O)c2cc3ccc(C(=O)Nc4cnn(Cc5ccc(N)cc5)c4)nc3n21` [Compound 18, (R)—N-(1-(4-aminobenzyl)-1H-pyrazol-4-yl)-9-methyl-6-oxo-6,7,8,9-tetrahydropyrido[3′,2′:4,5]pyrrolo[1,2-a]pyrazine-2-carboxamide], the IC50 in assay [1] was 100 to 2500 nM.
Take `C[C@@H]1CNC(=O)c2cc3ccc(C(=O)Nc4ccccc4C(N)=O)nc3n21` [Compound 21, (R)—N-(2-carbamoylphenyl)-9-methyl-6-oxo-6,7,8,9-tetrahydropyrido[3′,2′:4,5]pyrrolo[1,2-a]pyrazine-2-carboxamide]: the IC50 in assay [1] was 400 to 3100 nM.
For `C[C@@H]1CNC(=O)c2cc3ccc(C(=O)Nc4cnn(Cc5ccc(N)cc5)c4)nc3n21` [Compound 25, (R)—N-(1-(4-aminobenzyl)-1H-pyrazol-4-yl)-9-methyl-6-oxo-6,7,8,9-tetrahydropyrido[3′,2′:4,5]pyrrolo[1,2-a]pyrazine-2-carboxamide hydrochloride salt], the IC50 in assay [1] lay in the range of 200 to 4100 nM. In addition, the “Total levels of PARP” value in assay [2] (2, 4 or 6 uM) is given as “not affected”. In assay [2] (2, 4 or 6 uM, relative to DMSO control), the “Apoptosis based on PARP cleavage” value is recorded as “undergone apoptosis based on PARP cleavage”. In addition, in assay [2] (all cell lines, 2, 4 or 6 uM, relative to DMSO controls), the P-YB-1 level result is on record as “consistently reduced”.
Regarding `C[C@@H]1CNC(=O)c2cc3ccc(C(=O)Nc4cnn(Cc5ccc(C(F)(F)F)cc5)c4)nc3n21` [Compound 22, (R)-9-methyl-6-oxo-N-(1-(4-(trifluoromethyl)benzyl)-1H-pyrazol-4-yl)-6,7,8,9-tetrahydropyrido[3′,2′:4,5]pyrrolo[1,2-a]pyrazine-2-carboxamide], in assay [1], the IC50 lay in the range of 200 to 6900 nM.
Take `C[C@@H]1CNC(=O)c2cc3ccc(NC(=O)c4cnn(Cc5ccccc5)c4)nc3n21` [Compound 15, (R)-1-benzyl-N-(9-methyl-6-oxo-6,7,8,9-tetrahydropyrido[3′,2′:4,5]pyrrolo[1,2-a]pyrazin-2-yl)-1H-pyrazole-4-carboxamide]: the IC50 amounted to 21000 ± 7500 nM in the assay on MDA-MB-231 cells [3] and 21300 ± 5400 nM in the assay on MDA-MB-231 cells [4].
